Reference: PMC6344423, “Opposing Actions of Adrenocorticotropic Hormone and Glucocorticoids on UCP1-Mediated Respiration in Brown Adipocytes” (Frontiers in Physiology, 2019)

Test system: Ucp1 gene expression in primary brown adipocytes of Ucp1^ki/ki mice
Test: Luciferase assay, FLUC activity as surrogate for Ucp1 expression
Type: cell-based, mouse
Settings: overnight stimulation, normalized to total protein content, n = 3, Figure 1D
Protocol: After overnight stimulation of primary brown adipocytes of Ucp1^ki/ki mice luciferase activity was assayed using a commercial kit system (Luciferase Assay System Freezer Pack E4030, Promega GmbH). Primary cells were lysed in 1x reporter lysis buffer by shaking for 20 min at room temperature. 10 μl lysate was mixed with 50 μl luciferase assay substrate solution, and the mixture was measured by FB12 in a luminometer (Single Tube Luminometer, Titertek-Berthold GmbH). Bioluminescence readouts were normalized to total protein content.
We then measured FLUC activity in primary brown adipocytes from Ucp1^ki/ki reporter gene mice to determine the effect of the GsPCR ligands on Ucp1 gene expression in response to overnight stimulation. As the expression of Fluc in these cells is driven by Ucp1promoter, FLUC activity served as a surrogate for Ucp1 expression. […] Based on the pronounced and relatively preferential stimulatory effect of ACTH on UCP1-mediated respiration we chose the ACTH to further investigate its thermogenic properties.

- FLUC (luciferase) activity as surrogate for Ucp1 expression: only had minor effects
Substance: CGRP: calcitonin gene-related peptide, ligand for CALCRL
